System: BEAS-2B
Assay: Proliferative effects of EP and its metabolic derivatives (WST-8)
Format: cell-based, human

For `OCCN(CCO)CCO`, the “animal cell proliferation without serum or growth factors” value was “not obtained”.

Source: patent publication US20150164762A1, “USE OF ETHANOLAMINE PHOSPHATE” (priority 2012, published 2015)
